Reference: patent publication US20230293711A1, “DISRUPTION OF CD28-SIALOSIDE LIGAND COMPLEXES TO ENHANCE T CELL ACTIVATION” (THE SCRIPPS RESEARCH INSTITUTE, priority 2020, published 2023)

By UniProt entry, the sequences of proteins in these tests, tags left out. Residues count along the entry.
UniProt Q15116, 25-167 limits assumed: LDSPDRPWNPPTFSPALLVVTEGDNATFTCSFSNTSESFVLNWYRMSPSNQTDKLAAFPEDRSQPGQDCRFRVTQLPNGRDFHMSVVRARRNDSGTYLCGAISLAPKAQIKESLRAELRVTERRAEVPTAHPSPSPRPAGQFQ

Biological target: human PD-1 (human) (UniProt Q15116)
Assay: ELISA (FIG. 11)

- EC50: 0.036 µg/mL
Substance: anti-human PD-1 monoclonal antibody clone 409A11 (Keytruda/Pembrolizumab)
